Tests used:
Assay in all cases: Cytokine-stimulated phosphorylation in immunophenotypically defined cell populations from healthy donor BM (flow cytometry);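 on pAKT S/N ratio: Phosphoprotein MFI normalized to lymphocyte MFI as internal negative control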;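 on pERK S/N ratio: Phosphoprotein MFI normalized to lymphocyte MFI as internal negative control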;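 on pS6 S/N ratio: Phosphoprotein MFI normalized to lymphocyte MFI as internal negative control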;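 on pSTAT3 S/N ratio: Phosphoprotein MFI normalized to lymphocyte MFI as internal negative control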
Format in all cases: cell-based, human
pAKT = settings: mean ± SD
Description: (§1) Bone marrow (BM) samples were collected in 7.5 mL Iscove's modified Dulbecco's medium (IMDM) supplemented with 100U penicillin, 0.01 mg/mL streptomycin, and 70 μg/mL heparin sodium salt from 10 patients undergoing hip replacement surgery, who were otherwise healthy. These patients were from a pool of surgery patients, age 49 to 77, and represented 7 female and 8 male patients. Wright Giemsa stained slides prepared from these samples were examined by Hematopathologist (AC) to confirm that no underlying hematological disorders were present. These BM samples were rinsed twice with IMDM to release cells, filtered using a 100 μm Nylon cell strainer to remove marrow particles, and centrifuged for at RT fro 7 minutes at 200 g. The cell pellet was washed twice with sterile IMDM to remove traces of fat and re-suspended in IMDM to a concentration of 3×10^7 cells/mL.
(§2) To assess the signal transduction response after growth factor simulation, a series comprising two sets of tubes including about 3×10^6 cells/100 μL were incubated at 37° C. for 30 minutes. After this pre-incubation period, tubes with then processes with either a stimulant or inhibitor. For signal stimulation, tubes were incubated at 2 minutes, 3.5 minutes, 7 minutes, 15 minutes, and 30 minutes with one of the following cytokines to stimulate protein phosphorylation: 10 ng/100 μL SCF, 50 ng/100 μL FL, 10 ng/100 μL GM-CSF, 10 ng/100 μL IL-3, or 10 ng/100 μL G-CSF. To examine the effects of protein phosphorylation inhibition, tubes were incubated with an inhibitor cocktail comprising 100 μM/100 μL UO126, 1 μM/100 μL LY294002, and 1 μM/100 μL rapamycin. One unstimulated tube receiving no stimulant or inhibitor was processed to assess basal levels of phospho-protein expression. After stimulation the cells were immediately fixed in 10% formaldehyde solution at 37° C. Pre-labeling with CD13, CD16 and CD64 antibodies was carried out 20 minutes prior to formaldehyde fixation. After fixation, one set of tubes was permeabilized without methanol for pAKT, pERK and pS6 staining and the other for 80% methanol permeabilized for pSTAT3 and pSTAT5 staining. After permeablization, the cells were washed in PBS with 2% BSA and blocked by re-suspended in 75 μL of PBS comprising 25% heat inactivated normal mouse serum, 25% normal rabbit serum. To stain cells with fluorescent conjugated monoclonal antibodies, samples were incubated on ice for 45 minutes in 100 μL of an antibody staining solution including either: 1) CD15-Pacific Orange, CD34-Phycoerythrin-Texas Red, CD117-Phycoerythrin-Cyanin 5.5, CD45-Allophycocyanin-Alexa Fluor 750 (or CD45-Pacific Orange, in which case CD15-Pacific Orange was omitted), pS6-Pacific Blue, pERK-Alexa Fluor 488 and pAKT-Alexa Fluor 647 or 2) CD15-Pacific Orange, CD34-Phycoerythrin-Texas Red, CD117-Phycoerythrin-Cyanin 5.5, CD45-Allophycocyanin-Alexa Fluor 750 or CD45-Pacific Blue, pSTAT3-Alexa Fluor 488 and pSTAT5-Phycoerythrin. The stained cells were washed twice with ice cold PBS containing 2% BSA and centrifuged at 800 g for 6 minutes at 4° C. The supernatant was discarded and cells re-suspended in 250 μL of chilled wash buffer for data acquisition. Stained cells were examined using either GALIOS flow cytometer (Beckman Coulter) or CYAN ADP (Beckman Coulter) equipped with 488 nm, 405 nm and 635 nm lasers to detect the degree of fluorescence. Data were analyzed using FCS Express (De Novo Software, CA) analysis software.
(§3) Specific phosphoprotein expression of pERK, pS6, pAKT, pSTAT5, and pSTAT3 was examined in seven discrete phenotypically defined populations based on 7-color immunophenotyping (FIG. 1). The percent of responding (phosphorprotein positive) cells for each of these populations was determined from individual single parameter histograms based on a fixed integration region set on the inhibitor treated control at about 3% positives. […]

pERK = settings: for pERK Percent (%) Responding Cells, Mean / pERK S/N ratio: healthy donor BM, mean ± SD
Description: as §1, §2, §3

pS6 = settings: mean ± SD
Description: as §1, §2, §3

pSTAT3 = settings: mean ± SD
Description: as §1, §2, §3

pSTAT5 = settings: mean ± SD
Description: as §1, §2, §3

[1] = CD34^+ (CD34^+/CD117^+ cells), listed as IL3
[2] = G1, immature myeloid cells, listed as IL3
[3] = G3, mature myeloid cells, listed as IL3

B1: Interleukin- 3 (protein, UniProt P08700 20-152, looked up)
Interleukin-3: APMTQTTPLKTSWVNCSNMIDEIITHLKQPPLPLLDFNNLNGEDQDILMENNLRRPNLEAFNRAVKSLQNASAIESILKNLLPCLPLATAAPTRHPIHIKDGDWNEFRRKLTFYLKTLENAQAQQTTLSLAIF
notes: colony-stimulating cytokine
B1 was tested, and the “pAKT Percent (%) Responding Cells, Mean” value (pAKT; CD34^+ (CD34^+/CD117^+ cells)) was 11.8 ± 11.0%, the “pAKT S/N ratio” value (pAKT; CD34^+ (CD34^+/CD117^+ cells)) was 1.8 ± 0.8 and the “pAKT Percent (%) Responding Cells, Mean” value (pAKT; CD117^+ (CD34^−/CD117^+ cells)) was 3.7 ± 4.0%. For the same molecule, the “pAKT S/N ratio” value (pAKT; CD117^+ (CD34^−/CD117^+ cells)) was 1.9 ± 1.0, the “pAKT Percent (%) Responding Cells, Mean” value (pAKT; G1, immature myeloid cells) was 3.4 ± 3.4% and the “pAKT S/N ratio” value (pAKT; G1, immature myeloid cells) was 2.5 ± 1.2. For the same molecule, the “pAKT Percent (%) Responding Cells, Mean” value (pAKT; G2, intermediate myeloid cells) was 5.3 ± 5.2%, the “pAKT S/N ratio” value (pAKT; G2, intermediate myeloid cells) was 2.6 ± 1.1 and the “pAKT Percent (%) Responding Cells, Mean” value (pAKT; G3, mature myeloid cells) was 5.6 ± 4.1%. For the same molecule, the “pAKT S/N ratio” value (pAKT; G3, mature myeloid cells) was 2.9 ± 1.4, the “pAKT Percent (%) Responding Cells, Mean” value (pAKT; Mono, monocytes) was 9.6 ± 14.6% and the “pAKT S/N ratio” value (pAKT; Mono, monocytes) was 3.1 ± 1.7. For the same molecule, the “pERK Percent (%) Responding Cells, Mean” value (pERK; CD34^+ (CD34^+/CD117^+ cells)) was 26%, the “pERK S/N ratio” value (pERK; CD34^+ (CD34^+/CD117^+ cells)) was 12.2 and the “pERK Percent (%) Responding Cells, Mean” value (pERK; [1]) was 26.2 ± 9.1%. For the same molecule, the “pERK S/N ratio” value (pERK; [1]) was 12.2 ± 3.5, the “pERK Percent (%) Responding Cells, Mean” value (pERK; CD117^+ (CD34^−/CD117^+ cells)) was 10.0 ± 7.1% and the “pERK S/N ratio” value (pERK; CD117^+ (CD34^−/CD117^+ cells)) was 2.7 ± 0.6. The “pERK Percent (%) Responding Cells, Mean” value (pERK; G1, immature myeloid cells) was 25.6%, the “pERK S/N ratio” value (pERK; G1, immature myeloid cells) was 4.3 ± 1.6 and the “pERK Percent (%) Responding Cells, Mean” value (pERK; [2]) was 25.6 ± 26.2%. For the same molecule, the “pERK Percent (%) Responding Cells, Mean” value (pERK; G2, intermediate myeloid cells) was 47.4 ± 30.0%, the “pERK S/N ratio” value (pERK; G2, intermediate myeloid cells) was 5.7 ± 2.4 and the “pERK Percent (%) Responding Cells, Mean” value (pERK; G3, mature myeloid cells) was 41.1%. For the same molecule, the “pERK S/N ratio” value (pERK; G3, mature myeloid cells) was 6.2 ± 2.3, the “pERK Percent (%) Responding Cells, Mean” value (pERK; [3]) was 41.1 ± 18.1% and the “pERK Percent (%) Responding Cells, Mean” value (pERK; Mono, monocytes) was 41.8 ± 19.4%. For the same molecule, the “pERK S/N ratio” value (pERK; Mono, monocytes) was 11.4, the “pERK S/N ratio” value (pERK; Mono, monocytes, listed as IL3) was 11.4 ± 4.7 and the “pERK, Normal Sample” value (pERK; Table 7 comparison value, matches percent responding CD34^+ cells of Tables 1-5) was 26.2. For the same molecule, the “pS6 Percent (%) Responding Cells, Mean” value (pS6; CD34^+ (CD34^+/CD117^+ cells)) was 33%, the “pS6 S/N ratio” value (pS6; CD34^+ (CD34^+/CD117^+ cells)) was 39.5 ± 31.2 and the “pS6 Percent (%) Responding Cells, Mean” value (pS6; [1]) was 50.7 ± 11.3%. The “pS6 Percent (%) Responding Cells, Mean” value (pS6; CD117^+ (CD34^−/CD117^+ cells)) was 33.2 ± 12.3%, the “pS6 S/N ratio” value (pS6; CD117^+ (CD34^−/CD117^+ cells)) was 60.3 ± 49.5 and the “pS6 Percent (%) Responding Cells, Mean” value (pS6; G1, immature myeloid cells) was 2.7 ± 1.5%. For the same molecule, the “pS6 S/N ratio” value (pS6; G1, immature myeloid cells) was 4.5 ± 2.4, the “pS6 Percent (%) Responding Cells, Mean” value (pS6; G2, intermediate myeloid cells) was 4.2 ± 3.3% and the “pS6 S/N ratio” value (pS6; G2, intermediate myeloid cells) was 4.1 ± 2.3. The “pS6 Percent (%) Responding Cells, Mean” value (pS6; G3, mature myeloid cells) was 5.5 ± 3.1%, the “pS6 S/N ratio” value (pS6; G3, mature myeloid cells) was 4.7 ± 2.6 and the “pS6 Percent (%) Responding Cells, Mean” value (pS6; Mono, monocytes) was 71.4 ± 10.5%. For the same molecule, the “pS6 S/N ratio” value (pS6; Mono, monocytes) was 26.0, the “pS6 S/N ratio” value (pS6; Mono, monocytes, listed as IL3) was 26.0 ± 21.0 and the “pSTAT3 Percent (%) Responding Cells, Mean” value (pSTAT3; CD34^+ (CD34^+/CD117^+ cells)) was 9.3 ± 6.1%. The “pSTAT3 S/N ratio” value (pSTAT3; CD34^+ (CD34^+/CD117^+ cells)) was 1.9 ± 0.4, the “pSTAT3 Percent (%) Responding Cells, Mean” value (pSTAT3; CD117^+ (CD34^−/CD117^+ cells)) was 5.6 ± 4.3% and the “pSTAT3 S/N ratio” value (pSTAT3; CD117^+ (CD34^−/CD117^+ cells)) was 2.6 ± 0.6. The “pSTAT3 Percent (%) Responding Cells, Mean” value (pSTAT3; G1, immature myeloid cells) was 6.2 ± 5.2%, the “pSTAT3 S/N ratio” value (pSTAT3; G1, immature myeloid cells) was 3.3 ± 0.6 and the “pSTAT3 Percent (%) Responding Cells, Mean” value (pSTAT3; G2, intermediate myeloid cells) was 4.6 ± 2.7%. For the same molecule, the “pSTAT3 S/N ratio” value (pSTAT3; G2, intermediate myeloid cells) was 3.3 ± 0.7, the “pSTAT3 Percent (%) Responding Cells, Mean” value (pSTAT3; G3, mature myeloid cells) was 7.5 ± 5.6% and the “pSTAT3 S/N ratio” value (pSTAT3; G3, mature myeloid cells) was 3.7 ± 0.7. For the same molecule, the “pSTAT3 Percent (%) Responding Cells, Mean” value (pSTAT3; Mono, monocytes) was 4.9 ± 2.9%, the “pSTAT3 S/N ratio” value (pSTAT3; Mono, monocytes) was 2.3 ± 0.4 and the “pSTAT5 Percent (%) Responding Cells, Mean” value (pSTAT5; CD34^+ (CD34^+/CD117^+ cells)) was 76%. The “pSTAT5 S/N ratio” value (pSTAT5; CD34^+ (CD34^+/CD117^+ cells)) was 19.3 ± 8.9, the “pSTAT5 Percent (%) Responding Cells, Mean” value (pSTAT5; [1]) was 76.0 ± 7.5% and the “pSTAT5 Percent (%) Responding Cells, Mean” value (pSTAT5; CD117^+ (CD34^−/CD117^+ cells)) was 59.3 ± 16.0%. The “pSTAT5 S/N ratio” value (pSTAT5; CD117^+ (CD34^−/CD117^+ cells)) was 12.4 ± 2.0, the “pSTAT5 Percent (%) Responding Cells, Mean” value (pSTAT5; G1, immature myeloid cells) was 96.6 ± 3.1% and the “pSTAT5 S/N ratio” value (pSTAT5; G1, immature myeloid cells) was 13.8. For the same molecule, the “pSTAT5 S/N ratio” value (pSTAT5; [2]) was 13.8 ± 3.0, the “pSTAT5 Percent (%) Responding Cells, Mean” value (pSTAT5; G2, intermediate myeloid cells) was 98.7 ± 0.7% and the “pSTAT5 S/N ratio” value (pSTAT5; G2, intermediate myeloid cells) was 14.2 ± 3.2. The “pSTAT5 Percent (%) Responding Cells, Mean” value (pSTAT5; G3, mature myeloid cells) was 98.2 ± 1.4%, the “pSTAT5 S/N ratio” value (pSTAT5; G3, mature myeloid cells) was 17.7 and the “pSTAT5 S/N ratio” value (pSTAT5; [3]) was 17.7 ± 3.8. The “pSTAT5 Percent (%) Responding Cells, Mean” value (pSTAT5; Mono, monocytes) was 90.7 ± 4.3%, the “pSTAT5 S/N ratio” value (pSTAT5; Mono, monocytes) was 13.5 and the “pSTAT5 S/N ratio” value (pSTAT5; Mono, monocytes, listed as IL3) was 13.5 ± 4.0.
